Measured values published in ChEMBL document CHEMBL1155439, “Transient receptor potential ankyrin 1 (TRPA1) channel as emerging target for novel analgesics and anti-inflammatory agents” (J Med Chem, 2010).

The chains behind the UniProt entries cited, without tags or fusion partners.
UniProt O75762, whole entry: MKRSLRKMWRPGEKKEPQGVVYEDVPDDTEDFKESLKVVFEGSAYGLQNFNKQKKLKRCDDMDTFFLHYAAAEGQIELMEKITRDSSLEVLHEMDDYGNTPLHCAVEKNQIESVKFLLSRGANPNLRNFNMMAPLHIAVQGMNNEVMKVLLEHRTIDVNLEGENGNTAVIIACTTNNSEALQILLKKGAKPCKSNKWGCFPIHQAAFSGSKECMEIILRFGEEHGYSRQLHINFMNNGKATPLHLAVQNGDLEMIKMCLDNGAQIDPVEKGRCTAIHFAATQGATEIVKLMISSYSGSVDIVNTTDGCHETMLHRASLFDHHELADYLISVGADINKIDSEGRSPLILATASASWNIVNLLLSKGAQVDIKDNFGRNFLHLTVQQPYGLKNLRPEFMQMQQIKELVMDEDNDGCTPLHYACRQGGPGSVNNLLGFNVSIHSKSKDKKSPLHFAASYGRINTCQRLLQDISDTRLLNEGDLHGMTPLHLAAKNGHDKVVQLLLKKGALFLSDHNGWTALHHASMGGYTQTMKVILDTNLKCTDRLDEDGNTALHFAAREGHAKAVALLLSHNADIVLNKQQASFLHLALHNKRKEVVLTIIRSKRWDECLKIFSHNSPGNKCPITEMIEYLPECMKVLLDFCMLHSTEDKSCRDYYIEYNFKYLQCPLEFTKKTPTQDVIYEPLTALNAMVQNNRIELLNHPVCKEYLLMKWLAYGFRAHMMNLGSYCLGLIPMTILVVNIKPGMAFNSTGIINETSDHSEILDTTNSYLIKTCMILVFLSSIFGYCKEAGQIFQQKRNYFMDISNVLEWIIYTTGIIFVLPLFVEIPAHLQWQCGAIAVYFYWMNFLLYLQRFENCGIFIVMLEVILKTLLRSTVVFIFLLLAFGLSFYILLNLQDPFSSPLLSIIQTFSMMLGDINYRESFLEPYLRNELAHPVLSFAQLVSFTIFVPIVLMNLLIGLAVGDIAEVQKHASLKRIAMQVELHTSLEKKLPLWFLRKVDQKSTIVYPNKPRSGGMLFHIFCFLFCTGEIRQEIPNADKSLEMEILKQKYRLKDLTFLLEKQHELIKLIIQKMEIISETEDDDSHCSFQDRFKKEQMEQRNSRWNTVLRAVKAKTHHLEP

What was measured:
[1] = target: T1, Transient receptor potential cation channel subfamily A member 1 (Homo sapiens, UniProt O75762); assay: Antagonist activity at TRPA1 channel assessed as inhibition of mustard oil-induced currents; assay type: functional
[2] = target: T1, Transient receptor potential cation channel subfamily A member 1; assay: Antagonist activity at human TRPA1 channel assessed as inhibition of thymol-induced response; assay type: functional

## CC12CCC(CC1=O)C2(C)C (configuration not stated) [CAMPHOR]
[1]
  IC50: 660 µM
[2]
  IC50: 400 µM
